From paper PMC12597760

The chains behind the UniProt entries cited, without tags or fusion partners. Residues count along the entry.
UniProt P37173, 23-166, stated change not applied: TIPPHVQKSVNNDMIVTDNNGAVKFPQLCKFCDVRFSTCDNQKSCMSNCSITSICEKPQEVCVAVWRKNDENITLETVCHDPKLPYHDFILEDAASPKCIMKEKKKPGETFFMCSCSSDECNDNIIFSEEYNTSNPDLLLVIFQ

Legend:
TGF-β1 [1] = molecular target: TGF-β1
TGF-β1 [2] = molecular target: TGF-β1; remark: listed apart in the source

IC50 (nM) of neutralization of TGF-β1 (10 pM), A549 IL-11 release assay (TGF-β1 [1]) [nM]	IC50 (nM) of neutralization of TGF-β1 (10 pM), A549 IL-11 release assay (experiment of Figure 4B) (TGF-β1 [2]) [nM]	Substance
2.5		T2m-hIgG2Fc(CCCC)ΔK (from UniProt P37173 23-166) (Fc fusion)
0.0229	0.0029	hIgG1Fc(CC)ΔK-T2m (from UniProt P37173 23-166) (Fc fusion)
